Reference: patent US20240246937A1 (MERCK SHARP & DOHME LLC, priority 2021, published 2024)

Chains of the proteins cited; added tags and fusions are not shown. Residues count along the entry.
UniProt Q96RQ9, 22-567 limits assumed: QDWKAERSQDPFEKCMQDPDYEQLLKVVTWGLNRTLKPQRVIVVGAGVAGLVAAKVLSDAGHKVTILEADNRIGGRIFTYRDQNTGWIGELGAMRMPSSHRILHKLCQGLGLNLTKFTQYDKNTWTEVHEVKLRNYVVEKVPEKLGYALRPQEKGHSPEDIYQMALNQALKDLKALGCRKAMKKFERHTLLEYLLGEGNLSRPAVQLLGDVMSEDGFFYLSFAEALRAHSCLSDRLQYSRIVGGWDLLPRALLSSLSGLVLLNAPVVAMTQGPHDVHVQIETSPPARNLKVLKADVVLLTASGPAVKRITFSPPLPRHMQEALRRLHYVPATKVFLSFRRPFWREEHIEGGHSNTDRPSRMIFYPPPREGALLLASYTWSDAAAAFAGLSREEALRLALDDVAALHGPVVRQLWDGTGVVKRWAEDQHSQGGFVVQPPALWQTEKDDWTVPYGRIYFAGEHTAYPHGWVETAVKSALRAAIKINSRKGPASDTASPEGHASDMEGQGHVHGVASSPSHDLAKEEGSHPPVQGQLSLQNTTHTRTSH

Molecular target: recombinant IL4I1 (Homo sapiens (Human), UniProt Q96RQ9)
Assay: IL4I1 Enzymatic Assay (Amplex Red/HRP coupled fluorescence detection of H2O2)
Details: read-out: EC50 (nM) (240 min), recombinant IL4I1, four-hour pre-incubation with compound
Experimental: Interleukin 4 inducible protein 1 (IL4I1) is an L-amino oxidase that catalyzes the oxidation of aromatic residues (Phe, Trp and Tyr): L-amino acid+H2O+O2→2-oxo acid+NH3+H2O2. Equal molar of H2O2 and the corresponding alpha-ketoacid are produced when IL4I1 and substrate are added. In this assay, the hydrogen peroxide generated by IL4I1 is then detected through a coupled reaction with Amplex® Red (10-acetyl-3,7-dihydroxyphenoxazine) and horseradish peroxidase (HRP) to produce resorufin product that could be detected in the form of fluorescence signals. The assessment of the inhibitory effect of small molecules (EC50) on IL4I1 is measured by the effectiveness of the compounds to inhibit the production of H2O2.
Using this assay, the potency (EC50) of each compound was determined from a ten-point (1:3 serial dilution) titration curve using the following outlined procedure. […] Reactions were allowed to proceed for 120 minutes followed by fluorescence readout on a Spectramax with the following set parameters: 544 nm excitation/590 nm emission, 570 nm cutoff (EnVision is an alternative reader). […] EC50 values were calculated using a non-linear regression, four-parameters sigmoidal dose-response model and are shown in Potency Table 1.

EC50: 23 nM
SMILES: O=C1C(=O)N(C2CCCC2)CCN1Cc1ccc(N2CCCC2)nc1
